This passage reports inhibition results from PubChem BioAssay AID521 (Sanford-Burnham Center for Chemical Genomics, 2006).

The chains behind the UniProt entries cited, without tags or fusion partners. Where a name states a change or a piece, a line headed by the entry shows the natural chain unless it says otherwise.
UniProt P35236: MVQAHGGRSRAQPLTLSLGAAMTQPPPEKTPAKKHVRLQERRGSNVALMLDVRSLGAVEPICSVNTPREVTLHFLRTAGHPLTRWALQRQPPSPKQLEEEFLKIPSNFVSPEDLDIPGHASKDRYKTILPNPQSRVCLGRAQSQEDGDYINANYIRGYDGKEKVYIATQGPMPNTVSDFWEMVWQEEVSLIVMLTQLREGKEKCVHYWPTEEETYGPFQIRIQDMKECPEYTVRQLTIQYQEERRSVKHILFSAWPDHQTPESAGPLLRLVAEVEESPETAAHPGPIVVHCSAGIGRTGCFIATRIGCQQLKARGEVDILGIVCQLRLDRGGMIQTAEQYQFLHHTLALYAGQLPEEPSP

The entries are a selection whose mix differs from that of the whole data set. The source made the active and inactive calls. Rule as the data show it: active = inhibition above about 50%; inconclusive = no clear call, values can overlap the other calls; inactive = below that.

A word on the inhibition: it is the drop in the measured response relative to a control, in per cent.

This test concerns the target Tyrosine-protein phosphatase non-receptor type 7 (Homo sapiens) (UniProt P35236). The test is described as follows: inhibitors of human HePTP phosphatase, primary screen, biochemical, absorbance, leukemia target (AID 521).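 Also: plate controls were vehicle for no effect and reference inhibitor for full effect.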 The following applies: recombinant HePTP phosphatase activity, OD absorbance; at 20 µM; stronger effect = higher value.
As for `O=C(NC(SC1=NCCS1)C(Cl)(Cl)Cl)c1ccc(I)cc1` (stereo not given), the inhibition was inactive: 4%. In the case of `O=C(OC1CN2CCC1CC2)C12CC3CC(CC(C3)C1)C2` (stereo not given), the inhibition was inactive: 9.7%.

Take `O=C(CF)NC(Sc1ccc(Cl)cc1)C(Cl)(Cl)Cl` (stereo not given): the inhibition is inactive: 6.8%. Under `O=C(COc1ccccc1)OC1CN2CCC1CC2` (stereo not given) stands inactive: 5.6%; under `COC(=O)c1ccc(OP(=O)(Oc2ccc(Cl)cc2C)SCC(C)C)cc1` (stereo not given), inactive: -4.9%; under `COP1(=S)c2c(C)nn(CCC#N)c2N=C(c2ccc(F)cc2)N1C` (stereo not given), inactive: 3.9%.

With `Cc1nn(-c2ccccc2)c2c1P(=O)(N1CCOCC1)N(C)C(c1ccccc1)=N2` (stereo not given), the inhibition is inactive: -5%.

Regarding `Cc1ccc(SC(NC(=O)c2ccccc2)C(Cl)Cl)cc1` (stereo not given), the inhibition was inactive: -2.3%. Under `Cc1ccc(OCC(=O)OC2CN3CCC2CC3)cc1` (stereo not given) stands inactive: -5.2%; under `O=P1(Nc2ccc(Br)cn2)COc2ccccc2OC1`, inactive: -2.3%; under `O=P1(Nc2ncccn2)COc2ccccc2OC1`, inactive: -0.1%. On to `Cc1cc(C)nc(SC(NC(=O)c2ccccc2)C(Cl)(Cl)Cl)n1` (stereo not given), for which the inhibition was inactive: 3.2%.

Take `Clc1n[nH]nc1-c1nn[nH][15n]1`: the inhibition was inactive: 3.2%. Under `O=P1(Nc2ccccn2)COc2ccccc2OC1` stands inactive: 3%.

Consider `Cc1cccc(OCC(=O)OC2CN3CCC2CC3)c1` (stereo not given), for which the inhibition was inactive: 4%. Turning to `O=P(Nc1nccs1)(c1ccccc1)c1nc2ccccc2s1` (stereo not given), the inhibition is inactive: 13.7%. `CCOP1(=S)c2c(C)nn(CCC#N)c2N=C(c2ccccc2F)N1C` (stereo not given): the inhibition was inactive: -11.9%. As for `CCOP1(=S)c2c(C)nn(CCC#N)c2N=C(c2ccc(F)cc2)N1C` (stereo not given), the figure is inactive: 6.3%; as for `COC(=O)c1cc2c(s1)N=C(c1ccccc1)N(C)P2(=O)N1CCOCC1` (stereo not given), inactive: -0.2%. As for `COC(=O)NC(Sc1ccc(Cl)cc1)C(Cl)Cl` (stereo not given), the figure is inactive: -0.3%; as for `O=P1(Nc2nc3ccc(Cl)cc3s2)COc2ccccc2O1` (stereo not given), inactive: 3.9%; as for `c1nnnn1CCn1cnnn1`, inactive: -12.5%. Take `O=P(Nc1nccs1)(c1ccccc1)c1ccccc1`: the inhibition was inactive: 4.6%. As for `O=CNC(Sc1nc2ccccc2o1)C(Cl)(Cl)Cl` (stereo not given), the figure is inactive: 10.5%; as for `CCCCSP(=O)(OCC(C)C)OCC(C)C`, inactive: 4.5%. With `O=C(OC1CN2CCC1CC2)c1cccc(Cl)c1` (stereo not given), the inhibition was inactive: -6.7%. Turning to `CCOC(=O)NC(Sc1nc2ccccc2o1)C(Cl)(Cl)Cl` (stereo not given), the inhibition is inactive: -5.1%. As for `CCc1nc2c(n1)c1c(non1O)c1c2no[n+]1[O-]`, the figure is inactive: 9.6%; as for `CCCCOP(=O)(OCCCC)SC`, inactive: 4.5%.

As to `Cc1c2non([O-])c-2c(C)[n+](=O)[n+]1[O-]`, the inhibition was inactive: 2.8%.
